These are literature values, as cited in PubChem BioAssay AID977608.

Each structure is given as a SMILES string.

As usually defined, the IC50 is the midpoint of a concentration-inhibition curve.

Holding throughout (assay): protein-ligand inhibition affinities from structures – PDB-derived complexes (AID 977608)
Data set [1] has as its target epoxide hydrolase 2, cytoplasmic. Conditions: literature IC50, protein: epoxide hydrolase 2, cytoplasmic, chain 1VJ5_A, PDB entry 1VJ5.
Data set [2] has as its target cell division protein kinase 6. As to conditions: literature IC50, protein: cell division protein kinase 6, chain 2F2C_B, PDB entry 2F2C.
For data set [3], the target named is Serine/threonine-protein kinase pim-1. Conditions: literature IC50, protein: Serine/threonine-protein kinase pim-1, chain 4DTK_A, PDB entry 4DTK.
For data set [4], the target named is Fusion protein of Nociceptin receptor and cytochrome b562. As to conditions: literature IC50, protein: Fusion protein of Nociceptin receptor and cytochrome b562, chain 4EA3_A, PDB entry 4EA3.
Data set [5] deals with Phosphatidylinositol 4,5-bisphosphate 3-kinase catalytic subunit gamma isoform. As to conditions: literature IC50, protein: Phosphatidylinositol 4,5-bisphosphate 3-kinase catalytic subunit gamma isoform, chain 4G11_A, PDB entry 4G11.
The target of data set [6] is pulmonary surfactant-associated protein d. As to conditions: literature IC50, protein: pulmonary surfactant-associated protein d, chain 2GGU_A, PDB entry 2GGU.
For a further data set, the target named is alpha 1,2-mannosidase. As to conditions: literature IC50, protein: alpha 1,2-mannosidase, chain 1FO3_A, PDB entry 1FO3.
For data set [7], the target named is Mitogen-activated protein kinase 13. Conditions: literature IC50, protein: Mitogen-activated protein kinase 13, chain 4EYJ_A, PDB entry 4EYJ.
The target in data set [8] is isopentenyl diphosphate delta-isomerase. As to conditions: literature IC50, protein: isopentenyl diphosphate delta-isomerase, chain 1PPW_A, PDB entry 1PPW.
In the next data set the target is cathepsin g. Conditions: literature IC50, protein: cathepsin g, chain 1KYN_A, PDB entry 1KYN.
The next data set has as its target acetylcholinesterase. As to conditions: literature IC50, protein: acetylcholinesterase, chain 1ZGB_A, PDB entry 1ZGB.
For data set [9], the target named is Proto-oncogene tyrosine-protein kinase Src. Conditions: literature IC50, protein: Proto-oncogene tyrosine-protein kinase Src, chain 4DGG_A, PDB entry 4DGG.
In a further data set the target is collagenase 3 (mmp-13). Conditions: literature IC50, protein: collagenase 3 (mmp-13), chain 1FLS_A, PDB entry 1FLS.
Data set [10] deals with proto-oncogene tyrosine-protein kinase src. Conditions: literature IC50, protein: proto-oncogene tyrosine-protein kinase src, chain 1Y57_A, PDB entry 1Y57.
The target in another data set is protein kinase c, iota. As to conditions: literature IC50, protein: protein kinase c, iota, chain 1ZRZ_A, PDB entry 1ZRZ.
Data set [11] has as its target camp-specific phosphodiesterase 4d. As to conditions: literature IC50, protein: camp-specific phosphodiesterase 4d, chain 1MKD_A, PDB entry 1MKD.
Data set [12] addresses protein-tyrosine phosphatase, non-receptor type. Conditions: literature IC50, protein: protein-tyrosine phosphatase, non-receptor type, chain 1T49_A, PDB entry 1T49.
For a further data set, the target named is coagulation factor vii. As to conditions: literature IC50, protein: coagulation factor vii, chain 1WTG_H, PDB entry 1WTG.
The target in a further data set is tryptophan synthase. As to conditions: literature IC50, protein: tryptophan synthase, chain 1C29_A, PDB entry 1C29.
Data set [13] deals with Cathepsin B-like peptidase (C01 family). As to conditions: literature IC50, protein: Cathepsin B-like peptidase (C01 family), chain 3S3R_A, PDB entry 3S3R.
For data set [14], the target named is 1-deoxy-d-xylulose 5-phosphate reductoisomerase. As to conditions: literature IC50, protein: 1-deoxy-d-xylulose 5-phosphate reductoisomerase, chain 1T1S_A, PDB entry 1T1S.
In the next data set the target is Carbonic anhydrase 2. Conditions: literature IC50, protein: Carbonic anhydrase 2, chain 4E4A_A, PDB entry 4E4A.
In data set [15] the target is peroxisome proliferator activated receptor ppar. Conditions: literature IC50, protein: peroxisome proliferator activated receptor ppar, chain 3GWX_A, PDB entry 3GWX.
For data set [16], the target named is histone acetylatransferase pcaf. Conditions: literature IC50, protein: histone acetylatransferase pcaf, chain 1WUG_A, PDB entry 1WUG.

As for `O=C(Nc1ccc(I)cc1)NC1CCCCC1`, the IC50 in data set [1] was 120 nM.

Take `CC(C)[C@@H](CO)Nc1nc(Nc2cc(N)cc(Cl)c2)c2ncn(C(C)C)c2n1`: the IC50 in [2] is 450 nM.

In the case of `CC(C)Oc1cccc(/C=C2\SC(=O)NC2=O)c1N1CCC[C@@H](N)C1`, the IC50 in data set [3] was 3 nM.

With `O=C(NCCCN1CCC2(CC1)OCc1ccccc12)[C@H]1CCCN1Cc1ccccc1`, the half-inhibitory concentration (IC50) in [4] is 0.27 nM.

On to `O=C(Cc1nc(N2CCOCC2)cc(=O)[nH]1)Nc1ccccc1`, for which the IC50 in data set [5] was 10 µM.

On to `OC[C@H]1O[C@H](O[C@H]2[C@H](O)[C@@H](O)[C@@H](O[C@H]3[C@H](O)[C@@H](O)[C@H](O)O[C@@H]3CO)O[C@@H]2CO)[C@H](O)[C@@H](O)[C@@H]1O`, for which the 50% inhibitory concentration (IC50) in data set [6] is 940 µM.

For the compound `O=C1N[C@@H]2[C@@H](O)[C@@H](O)[C@H](O)[C@@H](CO)N2C1=O`, the IC50 at alpha 1,2-mannosidase was 200 nM.

Turning to `Cn1nc(C(C)(C)C)cc1NC(=O)Nc1ccc(Oc2ccncc2)cc1`, the IC50 in data set [7] is 620 nM.

With `C/C(=C\COP(=O)(O)OP(=O)(O)O)CO`, the half-maximal inhibitory concentration (IC50) in [8] is 50 µM.

Take `O=C(c1ccc2ccccc2c1)[C@@H](c1cccc2ccccc12)P(=O)(O)O`: at cathepsin g, the IC50 is 4.1 µM.

`O=c1ccc2c([nH]1)CCC[C@H]2NCCCCCCCCCCNc1c2c(nc3ccccc13)CCCC2`: the IC50 at acetylcholinesterase is 8.8 nM.

As to `CC(C)n1nc(-c2ccc3cc(OCc4cccc(Cl)c4)ccc3c2)c2c(N)ncnc21`, the IC50 in data set [9] was 800 nM.

For the compound `COc1ccc(S(=O)(=O)N(Cc2cccnc2)c2c(C)cccc2C(=O)NO)cc1`, the IC50 at collagenase 3 (mmp-13) was 33 nM.

On to `CN1CCN(Cc2ccc(C(=O)Nc3cccc(Nc4nccc(-c5cccnc5)n4)c3)cc2)CC1`, for which the IC50 in data set [10] was 1630 nM.

Turning to `CN(C)CCCn1cc(C2=C(c3c[nH]c4ccccc34)C(=O)NC2=O)c2ccccc21`, at protein kinase c, iota, the IC50 was 5.8 µM.

For `COc1cc(-c2ccc(=O)[nH]n2)ccc1OC(F)F`, in [11], the IC50 is 160 nM.

Regarding `CCc1oc2cc(S(=O)(=O)Nc3ccc(S(N)(=O)=O)cc3)ccc2c1C(=O)c1cc(Br)c(O)c(Br)c1`, the IC50 in data set [12] was 22 µM.

Turning to `CCS(=O)(=O)N[C@H](Cc1ccc(-c2ccccc2)cc1)C(=O)N[C@@H](CCC(N)=O)C(=O)NCc1ccc(C(=N)N)cc1`, the IC50 on coagulation factor vii was 93 nM.

As to `O=P(O)(O)/C=C/CCSc1ccccc1O`, the IC50 on tryptophan synthase was 472 nM.

Take `CN1CCN(C(=O)N[C@@H](Cc2ccccc2)C(=O)N[C@@H](CCc2ccccc2)CCS(=O)(=O)c2ccccc2)CC1`: the IC50 in data set [13] was 2.09 nM.

In the case of `O=P(O)(O)C(Nc1ccc(Cl)cn1)P(=O)(O)O`, the IC50 in [14] was 7 µM.

For `O=C(O)c1ccccc1S`, at Carbonic anhydrase 2, the IC50 is 9 mM.

As for `CC/C=C\C/C=C\C/C=C\C/C=C\C/C=C\CCCC(=O)O`, the IC50 in [15] is 4 µM.

As to `Cc1ccc(NCCCN)c([N+](=O)[O-])c1`, the IC50 in [16] is 1600 nM.
